{"source": "ChEMBL document CHEMBL1130155", "about": "“Synthesis and structure-activity relationships of potent thrombin inhibitors: piperazides of 3-amidinophenylalanine” (J Med Chem, 1997)", "molecular_target": "Prothrombin (Bos taurus, UniProt P00735)", "note": "pKi: −log10 of the molar value."}
{"molecule": "CS(=O)(=O)N1CCN(C(=O)C(Cc2cccc(C(=N)N)c2)NS(=O)(=O)c2ccc3ccccc3c2)CC1", "note": "(stereo unspecified)", "values": [{"measurement": "pKi", "result": 8.48}]}
